Data published in patent US9034850B2, “Gonadotropin releasing hormone receptor antagonist, preparation method thereof and pharmaceutical composition comprising the same” (SK Chemicals Co., Ltd., priority 2009, dated 2015).

By UniProt entry, the sequences of proteins in these tests, tags left out.
UniProt P30968, whole entry: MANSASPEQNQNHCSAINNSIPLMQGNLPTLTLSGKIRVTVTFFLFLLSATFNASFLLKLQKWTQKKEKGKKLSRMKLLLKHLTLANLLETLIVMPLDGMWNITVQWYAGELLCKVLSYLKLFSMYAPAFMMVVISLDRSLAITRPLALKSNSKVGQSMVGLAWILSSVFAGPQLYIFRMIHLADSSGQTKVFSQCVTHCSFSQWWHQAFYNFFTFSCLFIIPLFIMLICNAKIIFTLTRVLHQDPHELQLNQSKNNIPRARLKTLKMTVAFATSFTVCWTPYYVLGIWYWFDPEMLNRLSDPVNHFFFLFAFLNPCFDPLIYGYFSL

Assays:
[1] = target: GnRH receptor (Homo sapiens, UniProt P30968); assay: GnRH-R reporter assay (NFAT promoter luciferase, leuprolide acetate as ligand); details: read-out: IC50 Value, HEK293 transformed with pcDNA3.1/GnRH receptor and pGL4/NFAT promoter
[2] = Assay for oral absorptivity (plasma drug level after oral administration); details: SD rats
Experimental: 1) Preparation of Specimen for Measuring Drug Level upon Oral Administration
For use as experimental animals, SD rats (Charles River Japan, male, 8 weeks old, 220-270 g) was starved overnight. Test compounds (25˜30 mg) were dissolved in polyethyleneglycol 400 (PEG400) 20%, and a 0.5% carboxy methyl cellulose (CMC) solution 80% to produce solutions of 4 μmmol/mL. The rats were weighed. The test compounds were orally administered at a dose of 40 μmol/kg (ca. 25˜30 mg/kg) to the rats using a sonde and a 3 mL syringe. Blood samples were taken 20, 40, 60, 120, 240, and 360 min after the oral administration. Plasmas separated from the blood samples by centrifugation were used as specimens.
2) Measurement of Drug Level
0.09 mL of methanol was added to 0.03 mL of the plasma obtained in 1), followed by vortexing to precipitate and remove proteins. 0.005 mL of the supernatant was injected to LC/MS/MS.
Apparatus: Shiseido Nanospace SI-2
Column: Shiseido capcelpack C18, MG3, 5 um, 2.0 mm I.D×50 mm
Mobile Phase: a mixture of 3:7 10 mM ammonium formate (pH 4.0): acetonitrile.

IC50 [1]: 1.6 nM
Cmax ([2]; oral, 40 μmol/kg, plasma): 442.9 ng/mL
AUC8 hr ([2]; plasma drug level after oral administration): 757.6 ng·h/mL
SMILES: COc1cccc(-c2c(C)n(Cc3c(F)cccc3C(F)(F)F)c(=O)n(C[C@H](NCCCC(=O)O)c3ccccc3)c2=O)c1F
